Patent US10106559B2, “Substituted tetrahydrocarbazole and carbazole carboxamide compounds” (BRISTOL-MYERS SQUIBB COMPANY, priority 2013, dated 2018)

Test system: CD69 expression on B cells in human whole blood
Test: Whole Blood Assay of BCR-Stimulated CD69 Expression on B Cells
Type: cell-based
Conditions: B-cell

IC50: 240 nM
SMILES: Cc1cc(C(N)=O)c2[nH]c3cc(C(C)(C)O)ccc3c2c1-c1cccc(-n2c(=O)cc3c(Cl)cccn3c2=O)c1C [Example 71]
